Antibody variant affinities, Ab-14 heavy chain, assay B

The measurements come from Li et al. 2023 (doi:10.1038/s41467-023-39022-2) through the FLAb antibody collection.

Target peptide (SARS-CoV-2 spike, HR2 region): PDVDLGDISGINAS

Parent scFv Ab-14: VH joined to VL by the linker GGGGSGGGGSGGGGS. Changes lie in the heavy chain CDRs alone.
VH: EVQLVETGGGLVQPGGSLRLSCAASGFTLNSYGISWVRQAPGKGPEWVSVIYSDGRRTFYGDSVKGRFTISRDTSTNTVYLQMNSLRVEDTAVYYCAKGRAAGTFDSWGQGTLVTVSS
VL: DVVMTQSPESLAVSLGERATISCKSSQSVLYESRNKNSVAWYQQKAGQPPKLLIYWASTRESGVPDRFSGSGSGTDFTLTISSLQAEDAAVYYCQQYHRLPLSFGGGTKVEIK

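Phage display of a naive human antibody library on the peptide gave the parent. Designed CDR sequences, proposed from the first random library and measured here. Several design methods are mixed in this list. The scFvs were displayed on barcoded MATa yeast, the peptide on MATalpha yeast. After mating in shaken culture at 30 °C for 16 h, diploids were selected and their barcode pairs sequenced. Scores were corrected for input abundance and mapped to Kd with protein pairs of known affinity run in the same pool. The assay was run in six technical replicates.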

Each variant is given by its three heavy chain CDRs, as the data file delimits them; those of the parent are GFTLNSYGIS, VIYSDGRRTFYGDSVK, GRAAGTFDS. This list holds designs with at most six substitutions. The read-out is the apparent dissociation constant on a log10 scale (nM): the lower, the stronger. Replicates are averaged; those with no signal do not enter the mean. "nd" marks a missing value. The strain was present, yet no cells mated with the target were sequenced in any replicate, which points to weak or no binding. The range of this assay differs from that of the first round, and the authors advise against merging the two. As a blank, each scFv also met three strains without target: over all heavy chain designs, 1% of these pairings were detected, typically at 2.08 and seldom below 0.84. The authors' rule: three or more of the six replicates give a measured affinity, fewer mean a poor binder. The parent sequence was in this pool as ten entries: three were never detected, three once, and four in most replicates, with averages from 0.34 to 2.37.

With GFTLNEYGIS, VIYSDGRRTFYIDSVK, GKAAGTFDS the result was 0.49 (4 of 6 replicates).
With GFTLNSYGIS, VIYSDGQRTFYSDSVK, GRAGGTFDS the result was 2.13 (1 of 6 replicates).
With GFELNSYGIS, VIYADGRRTFYGDSVK, GRAAGTFDD the result was -0.24 (6 of 6 replicates).
With GFTLNEYGIS, VIYSDGRRTFYMDSVK, GREAGTFDV the result was 0.35 (6 of 6 replicates).
With GFTLNSYGIS, VIYSDGRRTAYGDSVK, GEAAGKFDK the result was nd (0 of 6 replicates).
With GFDLNSYGIS, VIYSDGRRTFYCDSVK, GEAAGTFDS the result was 1.64 (5 of 6 replicates).
With GFELNEYGIS, VIYSDGRRTFYSDQVK, GRTAGTFDS the result was -0.24 (6 of 6 replicates).
With GFTINSYGIS, VIYSDGRRTFYSDSVK, GSAAGTFDS the result was 1.74 (5 of 6 replicates).
With GFELNEYGIS, VIYSDGRRTFYGDSVK, GHAAGTFDL the result was 0.12 (6 of 6 replicates).
With GITLNSYGIS, VIYSDGRRTFYGDSVK, GRLAGTFDS the result was nd (0 of 6 replicates).
With GFTLNSYGIS, VIYSDGKRTFYSDSVK, GREAGTFDT the result was -0.17 (6 of 6 replicates).
With GFTLDSYGIS, VIYSDGRRTFYGDSVK, GRAAGTFCV the result was nd (0 of 6 replicates).
With GFNLNSYGIS, VIYSDGRRTFYGDNVK, GQAAGTFDS the result was 0.79 (6 of 6 replicates).
With GFSLNTYGIS, VIYSDGRRTFYGDSVK, GREAGTFDS the result was 0.23 (6 of 6 replicates).
With KFGLNEYGIS, VIYSDGRRTFYIDSVK, GRTAGTFDS the result was 2.20 (4 of 6 replicates).
With GFTLNDYGIS, VIYSDGRRTFYHDSVK, GRAAGTFWS the result was nd (0 of 6 replicates).
With GFSLNSYGIS, VIYSDGRRTFYGDKVK, GRTAGTFDS the result was 1.71 (3 of 6 replicates).
With GFTLNSYGIS, VIYADGRRTFYGDSVK, GNAAGTFKM the result was 2.58 (1 of 6 replicates).
With GFTLNEYGIS, VIYSDGRRTFYWDSVK, GRAAVTFDT the result was nd (0 of 6 replicates).
With GFSLNEYGIS, VIYSDGRRTFYGDSVK, GRLAGTFDS the result was 0.02 (6 of 6 replicates).
With GFDLNSYGIS, VIYSDGRRTFYADGVK, GKAAGTFDS the result was nd (0 of 6 replicates).
With GFTLNSYGIS, VIYSDGRRTFYGDSVK, GRAACAFDS the result was nd (0 of 6 replicates).
With GFTLNEYGIS, VIYSDGRRTFYGDAVK, GRNAGTFDS the result was 1.42 (2 of 6 replicates).
With GFTLNEYGIS, VIYSDGRRTFYADSVK, GRAAGTFDK the result was -0.11 (6 of 6 replicates).
With GFSLNEYGIS, VIYSDGRRTFYGDSVK, GWAAGTFDR the result was nd (0 of 6 replicates).
With GFTLNSYGIS, VIYRDGRRTFYNDSVK, GRAAGTKDS the result was nd (0 of 6 replicates).
With GFDLNSYGIS, VIYSDGRRTFYDDMVK, GKAAGTFDS the result was 1.43 (5 of 6 replicates).
With GFELNSYGIS, VIYSDGRRTFYADDVK, GRQAGTFDS the result was 0.76 (6 of 6 replicates).
With GFTLNSYGIS, VIYSDGRRTEYGDQVK, GQAAGTFDS the result was nd (0 of 6 replicates).
With GFDLNSYGIS, VIYSDGRRTFYGDSVK, GKAAGSFDS the result was 0.35 (6 of 6 replicates).
With GFDLNSYGIS, VIYSDGRRTFYADQVK, GNAAGTFDS the result was 0.66 (6 of 6 replicates).

The first 5 variants above that were never detected:

{"CDR-H1": "GFTLNSYGIS", "CDR-H2": "VIYSDGRRTAYGDSVK", "CDR-H3": "GEAAGKFDK", "mean, log10 nM": "nd", "replicates with signal": "0 of 6"}
{"CDR-H1": "GITLNSYGIS", "CDR-H2": "VIYSDGRRTFYGDSVK", "CDR-H3": "GRLAGTFDS", "mean, log10 nM": "nd", "replicates with signal": "0 of 6"}
{"CDR-H1": "GFTLDSYGIS", "CDR-H2": "VIYSDGRRTFYGDSVK", "CDR-H3": "GRAAGTFCV", "mean, log10 nM": "nd", "replicates with signal": "0 of 6"}
{"CDR-H1": "GFTLNDYGIS", "CDR-H2": "VIYSDGRRTFYHDSVK", "CDR-H3": "GRAAGTFWS", "mean, log10 nM": "nd", "replicates with signal": "0 of 6"}
{"CDR-H1": "GFTLNEYGIS", "CDR-H2": "VIYSDGRRTFYWDSVK", "CDR-H3": "GRAAVTFDT", "mean, log10 nM": "nd", "replicates with signal": "0 of 6"}